Source: US7687508B2, “Cyclic derivatives as modulators of chemokine receptor activity” (Bristol-Myers Squibb Company, priority 2006, dated 2010)

Experiment: Single-dose pharmacokinetics in rats
Assay type: in vivo, Sprague-Dawley rats
Settings: rat, dose per compound (mg/kg), tested form: TFA

CC(C)N(C)[C@@H]1CC[C@H](N2CC[C@H](NC(=O)c3cccc(C(F)(F)F)c3)C2=O)[C@H](CS(C)(=O)=O)C1
Oral AUC: 690 nM·h
